# Laboratory results from article PMC12630025, “Characterization and inhibitor sensitivity of ARAF, BRAF, and CRAF kinases [drawing 1]” (The Journal of Biological Chemistry, 2025).
# pIC50: −log10 of the molar value. Values joined by “and” are separate entries in the source; they are usually repeats but may differ in a detail not shown here. Equal values may be shown once.
# Experiments:
# [1] = target: T1, ARAF^SSDD (MEK1^SASA:ARAF^SSDD-14-3-3ε dimer complex) (Homo sapiens, UniProt P10398, G300S/Y301D/Y302D); assay: TR-FRET kinase inhibition assay (phosphorylation of biotinylated MEK1), ARAF dimer complex; assay type: biochemical; conditions: ARAF^SSDD IC50, 10 nM enzyme, 250 nM MEK1, 200 μM ATP, 40 min preincubation, 30 min reaction
# T1 construct: ARAF^274-606, G300S, Y301/302D-14-3-3 ε with N-terminal His6 and StrepII tags; His6 (N); StrepII (N); made in house; host or cells: SF9 insect cells (baculovirus)
# T1 sequence (P10398 274-606 G300S/Y301D/Y302D): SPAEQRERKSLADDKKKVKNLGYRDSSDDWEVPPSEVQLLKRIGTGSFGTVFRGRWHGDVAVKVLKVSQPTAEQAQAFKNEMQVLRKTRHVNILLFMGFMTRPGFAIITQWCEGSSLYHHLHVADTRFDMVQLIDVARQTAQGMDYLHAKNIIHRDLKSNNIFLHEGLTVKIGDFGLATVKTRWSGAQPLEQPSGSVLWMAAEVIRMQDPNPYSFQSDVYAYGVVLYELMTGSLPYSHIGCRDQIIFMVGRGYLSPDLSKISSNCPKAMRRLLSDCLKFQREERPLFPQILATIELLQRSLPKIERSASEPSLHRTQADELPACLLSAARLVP
# [2] = target: T2, CRAF^WT (MEK1:CRAF^WT:14-3-3 dimer complex) (Homo sapiens, UniProt P04049); assay: TR-FRET kinase inhibition assay (phosphorylation of biotinylated MEK1), CRAF WT dimer complex; assay type: biochemical; conditions: four-parameter fit; 200 μM ATP
# T2 construct: His6 (N); made in house; host or cells: insect cells (baculovirus)
SMILES,pIC50 [1],CRAF^WT nH (Hill slope) [2]
OCCn1cc(-c2ccc3c(c2)CC/C3=N\O)c(-c2ccncc2)n1 [GDC0879],< 6.30 and 6.19,–
CN(C)CCOc1ccc(-c2nc(-c3ccncc3)c(-c3ccc4c(c3)CC/C4=N\O)[nH]2)cc1 [SB590885],–,−0.8
